For series [1] the following is noted: 25 mg in 0.5% tetradecyl-beta-D-maltoside, oral and rectal, vs 25 mg oral tablets.
The conditions of series [2]: formulations specifically optimized for oral delivery; cited from earlier work.

On to `CNS(=O)(=O)Cc1ccc2[nH]cc(CCN(C)C)c2c1` [sumatriptan], for which the Cmax result in series [1] is “increases Cmax”.
Turning to “Calcitonin: calcitonin [reference compound]”, the oral bioavailability in series [2] is 0.5-1.4%.
With insulin: insulin, the oral bioavailability in series [2] is 3%.

(Values after patent US20260364175A1, “COMPOSITIONS FOR DRUG ADMINISTRATION” (Aegis Therapeutics, LLC, priority 2018, published 2026).)
